# CycPeptMPDB entries from one study

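Lipid, pH, incubation time, direction and concentration are not recorded in the data file. Other peptides of the study may be missing here. Entries at the database's floor value (log10 P of -10) are not listed.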

PAMPA is the parallel artificial membrane permeability assay, which has no cells and reads passive diffusion. P is given in units of 10^-6 cm/s (from log10 values with two decimals); larger means faster passage.

structure (SMILES) | PAMPA (10^-6 cm/s)
CC(C)C[C@@H]1NC(=O)[C@@H]2CCCN2C(=O)[C@H](CC(C)C)N(C)C(=O)[C@@H](CC(C)C)N(C)C(=O)[C@H](C)NC(=O)[C@@H]2CCCN2C(=O)[C@H](Cc2ccccc2)NC1=O | 1.8
CC(C)C[C@@H]1NC(=O)[C@@H](C)NC(=O)[C@H](Cc2ccccc2)NC(=O)[C@H](CC(C)C)N(C)C(=O)[C@@H]2CCCN2C(=O)CN(Cc2ccccc2)C1=O | 2.6
CC(C)C[C@@H]1NC(=O)[C@H]2CCCN2C(=O)CN(Cc2ccccc2)C(=O)[C@@H](CC(C)C)N(C)C(=O)[C@@H](C)N(C)C(=O)[C@H](Cc2ccccc2)NC1=O | 1.1
CC(C)C[C@@H]1NC(=O)[C@@H]2CCCN2C(=O)[C@@H](CC(C)C)NC(=O)[C@@H](CC(C)C)NC(=O)[C@@H](C)NC(=O)[C@H](Cc2ccccc2)NC1=O | 3.7
CCCN1CC(=O)N(C)[C@@H](CC(C)C)C(=O)N(Cc2ccccc2)CC(=O)N2CCC[C@@H]2C(=O)N[C@@H](CC(C)C)C(=O)N[C@@H](Cc2ccccc2)C(=O)N2CCC[C@@H]2C1=O | 1.5
CC(C)C[C@@H]1NC(=O)CN(Cc2ccccc2)C(=O)[C@H](C)N(C)C(=O)[C@@H]2CCCN2C(=O)[C@H](Cc2ccccc2)NC(=O)[C@@H](CC(C)C)N(C)C(=O)[C@@H]2CCCN2C1=O | 2.3
CC(C)C[C@@H]1NC(=O)[C@H]2CCCN2C(=O)CN(Cc2ccccc2)C(=O)[C@H](CC(C)C)NC(=O)[C@H](C)NC(=O)[C@@H]2CCCN2C(=O)[C@H](Cc2ccccc2)NC1=O | 0.39
CC(C)C[C@@H]1NC(=O)[C@H]2CCCN2C(=O)CN(Cc2ccccc2)C(=O)[C@H](CC(C)C)NC(=O)[C@@H](C)NC(=O)[C@H]2CCCN2C(=O)[C@H](Cc2ccccc2)NC1=O | 0.72
CC(C)C[C@@H]1NC(=O)[C@H]2CCCN2C(=O)[C@H](CC(C)C)N(C)C(=O)[C@@H](CC(C)C)N(C)C(=O)[C@@H](C)NC(=O)[C@H](Cc2ccccc2)NC1=O | 1.5
CC(C)C[C@@H]1NC(=O)[C@H](C)N(C)C(=O)[C@@H]2CCCN2C(=O)[C@H](Cc2ccccc2)NC(=O)[C@@H](CC(C)C)N(C)C(=O)[C@@H]2CCCN2C(=O)[C@@H](CC(C)C)NC1=O | 2.8
CC(C)C[C@@H]1NC(=O)[C@@H](CC(C)C)NC(=O)[C@@H](C)N(C)C(=O)[C@@H]2CCCN2C(=O)[C@H](Cc2ccccc2)NC(=O)CN(Cc2ccccc2)C(=O)[C@@H]2CCCN2C1=O | 0.69
CC(C)C[C@@H]1NC(=O)CN(Cc2ccccc2)C(=O)[C@@H](C)N(C)C(=O)[C@@H]2CCCN2C(=O)[C@H](Cc2ccccc2)NC(=O)[C@H](CC(C)C)N(C)C(=O)[C@H]2CCCN2C1=O | 4.5
CC(C)C[C@H]1NC(=O)CN(Cc2ccccc2)C(=O)C[C@H](Cc2ccccc2)NC(=O)[C@@H]2CCCN2C(=O)[C@H](Cc2ccccc2)NC(=O)[C@H](CC(C)C)N(C)C(=O)[C@H]2CCCN2C1=O | 2.5
CC(C)C[C@@H]1NC(=O)[C@H](C)N(C)C(=O)[C@H]2CCCN2C(=O)[C@H](Cc2ccccc2)NC(=O)CN(Cc2ccccc2)C(=O)[C@@H]2CCCN2C(=O)[C@H](CC(C)C)N(C)C1=O | 8.3
CC(C)C[C@@H]1C(=O)N[C@@H](Cc2ccccc2)C(=O)N(C)[C@H](C)C(=O)N[C@H](CC(C)C)C(=O)N[C@@H](Cc2ccccc2)CC(=O)N2CCC[C@H]2C(=O)N1C | 2.2
CC(C)C[C@@H]1C(=O)N2CCC[C@H]2C(=O)N[C@H](CC(C)C)C(=O)N[C@@H](Cc2ccccc2)C(=O)N2CCC[C@H]2C(=O)N(C)[C@H](C)C(=O)N(Cc2ccccc2)CC(=O)N1C | 2.8
CC(C)C[C@@H]1NC(=O)[C@@H](CC(C)C)NC(=O)[C@@H](C)NC(=O)[C@H](Cc2ccccc2)NC(=O)CN(Cc2ccccc2)C(=O)[C@H]2CCCN2C1=O | 3.3
CCCN1CC(=O)N(C)[C@@H](CC(C)C)C(=O)N[C@H](CC(C)C)C(=O)N2CCC[C@@H]2C(=O)N[C@@H](CC(C)C)C(=O)N[C@@H](Cc2ccccc2)C(=O)N2CCC[C@@H]2C1=O | 1.4
CC(C)C[C@@H]1NC(=O)[C@H](C)N(C)C(=O)[C@H](Cc2ccccc2)NC(=O)[C@@H](CC(C)C)N(C)C(=O)[C@H]2CCCN2C(=O)[C@H](CC(C)C)NC1=O | 3.7

Excerpt, the final 2 entries:

{"smiles": "CCCN1CC(=O)N(C)[C@@H](CC(C)C)C(=O)N[C@H](CC(C)C)C(=O)N2CCC[C@@H]2C(=O)N[C@@H](CC(C)C)C(=O)N[C@@H](Cc2ccccc2)C(=O)N2CCC[C@@H]2C1=O", "PAMPA (10^-6 cm/s)": "1.4"}
{"smiles": "CC(C)C[C@@H]1NC(=O)[C@H](C)N(C)C(=O)[C@H](Cc2ccccc2)NC(=O)[C@@H](CC(C)C)N(C)C(=O)[C@H]2CCCN2C(=O)[C@H](CC(C)C)NC1=O", "PAMPA (10^-6 cm/s)": "3.7"}

Values of Townsend et al. 2020, doi:10.26434/chemrxiv.13335941.v1, as listed in CycPeptMPDB.